Data taken from patent US20250109201A1 (AGENUS, published 2025).

Chains of the proteins cited; added tags and fusions are not shown. Lines headed by an entry give the natural chain unless they say otherwise; changes in a name come on top. A line that says so, or that is headed by a name, gives the form on record, which may keep a tag or linker. Residues count along the entry.
UniProt O75019, 17-461 limits assumed: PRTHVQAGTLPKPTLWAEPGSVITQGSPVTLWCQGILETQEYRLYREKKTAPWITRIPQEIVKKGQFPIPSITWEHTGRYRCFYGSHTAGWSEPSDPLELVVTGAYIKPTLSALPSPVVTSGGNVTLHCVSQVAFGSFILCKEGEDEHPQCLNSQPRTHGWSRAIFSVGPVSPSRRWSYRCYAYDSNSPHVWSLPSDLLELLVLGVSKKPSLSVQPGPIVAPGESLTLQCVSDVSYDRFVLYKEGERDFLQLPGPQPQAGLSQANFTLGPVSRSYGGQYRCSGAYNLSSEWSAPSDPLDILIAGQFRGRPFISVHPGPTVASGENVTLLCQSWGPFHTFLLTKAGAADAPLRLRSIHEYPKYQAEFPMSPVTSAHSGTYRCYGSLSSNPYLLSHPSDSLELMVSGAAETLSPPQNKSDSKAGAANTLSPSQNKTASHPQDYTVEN
UniProt Q8N149, 24-449 limits assumed: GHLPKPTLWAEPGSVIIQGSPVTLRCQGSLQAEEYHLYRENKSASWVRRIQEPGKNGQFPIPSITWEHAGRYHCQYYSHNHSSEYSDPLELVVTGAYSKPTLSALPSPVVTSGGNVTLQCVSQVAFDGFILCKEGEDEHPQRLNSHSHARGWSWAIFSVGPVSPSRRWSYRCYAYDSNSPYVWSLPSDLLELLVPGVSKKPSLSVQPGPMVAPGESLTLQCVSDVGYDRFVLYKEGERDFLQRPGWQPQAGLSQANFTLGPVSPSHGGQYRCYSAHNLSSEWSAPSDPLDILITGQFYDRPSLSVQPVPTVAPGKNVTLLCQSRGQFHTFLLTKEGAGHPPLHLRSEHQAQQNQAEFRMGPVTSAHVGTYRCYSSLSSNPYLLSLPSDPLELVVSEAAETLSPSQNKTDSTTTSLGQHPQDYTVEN
UniProt P59901, 24-446 limits assumed: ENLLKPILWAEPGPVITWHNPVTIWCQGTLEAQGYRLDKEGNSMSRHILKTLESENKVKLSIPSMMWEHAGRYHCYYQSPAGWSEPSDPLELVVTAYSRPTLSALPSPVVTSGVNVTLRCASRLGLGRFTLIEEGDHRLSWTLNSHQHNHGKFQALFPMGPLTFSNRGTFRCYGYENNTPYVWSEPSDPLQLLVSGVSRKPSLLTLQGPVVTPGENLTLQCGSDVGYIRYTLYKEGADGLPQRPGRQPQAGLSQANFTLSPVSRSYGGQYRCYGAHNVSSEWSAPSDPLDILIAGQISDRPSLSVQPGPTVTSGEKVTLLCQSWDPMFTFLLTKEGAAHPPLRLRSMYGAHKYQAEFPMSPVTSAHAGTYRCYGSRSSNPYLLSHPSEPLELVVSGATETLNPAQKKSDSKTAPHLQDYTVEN
UniProt A6NI73, 42-268 limits assumed: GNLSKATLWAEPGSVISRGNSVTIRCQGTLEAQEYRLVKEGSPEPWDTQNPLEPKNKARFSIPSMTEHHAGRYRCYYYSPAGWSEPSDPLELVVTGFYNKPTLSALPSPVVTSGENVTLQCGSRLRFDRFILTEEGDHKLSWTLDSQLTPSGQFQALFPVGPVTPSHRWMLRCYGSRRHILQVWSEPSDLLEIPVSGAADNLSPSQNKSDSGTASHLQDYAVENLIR
UniProt Q6PI73, 24-447 limits assumed: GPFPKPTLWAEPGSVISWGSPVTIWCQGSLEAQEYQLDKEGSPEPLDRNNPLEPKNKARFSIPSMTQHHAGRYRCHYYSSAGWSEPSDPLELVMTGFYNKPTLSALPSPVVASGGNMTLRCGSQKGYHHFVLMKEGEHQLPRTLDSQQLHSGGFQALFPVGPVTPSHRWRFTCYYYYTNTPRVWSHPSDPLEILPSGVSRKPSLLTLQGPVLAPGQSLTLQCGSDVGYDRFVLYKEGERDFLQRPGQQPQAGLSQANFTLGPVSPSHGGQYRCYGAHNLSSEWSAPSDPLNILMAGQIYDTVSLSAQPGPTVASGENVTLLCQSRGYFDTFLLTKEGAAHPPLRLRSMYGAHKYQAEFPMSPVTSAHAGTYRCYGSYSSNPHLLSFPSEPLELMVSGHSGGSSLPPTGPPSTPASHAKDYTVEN
UniProt Q8N423, 22-458 limits assumed: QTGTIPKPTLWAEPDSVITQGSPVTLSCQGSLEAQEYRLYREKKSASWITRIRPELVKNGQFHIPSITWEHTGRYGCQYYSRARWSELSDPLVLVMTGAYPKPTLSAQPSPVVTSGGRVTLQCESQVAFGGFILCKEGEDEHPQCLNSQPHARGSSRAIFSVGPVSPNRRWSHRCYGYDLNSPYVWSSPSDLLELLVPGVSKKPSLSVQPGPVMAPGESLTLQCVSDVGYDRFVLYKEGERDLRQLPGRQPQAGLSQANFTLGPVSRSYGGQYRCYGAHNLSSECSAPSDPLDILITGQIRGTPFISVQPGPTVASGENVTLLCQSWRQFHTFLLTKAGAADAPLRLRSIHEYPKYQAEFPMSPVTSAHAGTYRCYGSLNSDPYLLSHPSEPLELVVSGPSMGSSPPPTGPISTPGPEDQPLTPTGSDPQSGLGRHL
UniProt O75023, 24-458 limits assumed: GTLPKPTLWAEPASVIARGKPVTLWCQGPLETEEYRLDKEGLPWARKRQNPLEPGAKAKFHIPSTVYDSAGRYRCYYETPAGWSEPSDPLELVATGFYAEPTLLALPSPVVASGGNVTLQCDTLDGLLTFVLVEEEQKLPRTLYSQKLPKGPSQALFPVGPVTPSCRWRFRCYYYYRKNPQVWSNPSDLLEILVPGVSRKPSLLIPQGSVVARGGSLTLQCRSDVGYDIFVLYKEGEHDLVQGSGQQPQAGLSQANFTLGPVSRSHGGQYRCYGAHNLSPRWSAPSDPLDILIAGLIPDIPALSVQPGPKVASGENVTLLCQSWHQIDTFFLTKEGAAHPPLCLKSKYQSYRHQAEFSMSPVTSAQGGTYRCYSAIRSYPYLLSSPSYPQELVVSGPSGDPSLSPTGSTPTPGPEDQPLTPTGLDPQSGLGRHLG
ECD-His tagged human ILT2 haplotype PE02, UniProt Q8NHL6, other isoform, or with tags, fused parts or gaps: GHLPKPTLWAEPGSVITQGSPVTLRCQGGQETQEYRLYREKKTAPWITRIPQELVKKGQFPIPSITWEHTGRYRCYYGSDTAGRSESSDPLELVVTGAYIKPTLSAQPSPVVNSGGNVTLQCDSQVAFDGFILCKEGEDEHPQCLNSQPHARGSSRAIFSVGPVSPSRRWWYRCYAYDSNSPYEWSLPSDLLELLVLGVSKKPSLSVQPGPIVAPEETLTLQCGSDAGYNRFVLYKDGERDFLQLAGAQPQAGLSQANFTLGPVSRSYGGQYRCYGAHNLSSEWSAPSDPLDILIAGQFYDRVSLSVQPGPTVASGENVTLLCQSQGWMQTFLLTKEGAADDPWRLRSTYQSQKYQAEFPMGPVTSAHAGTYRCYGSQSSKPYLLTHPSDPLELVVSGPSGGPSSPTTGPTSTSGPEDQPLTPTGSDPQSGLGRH
ECD-His tagged human ILT2 haplotype PE03, UniProt Q8NHL6, other isoform, or with tags, fused parts or gaps: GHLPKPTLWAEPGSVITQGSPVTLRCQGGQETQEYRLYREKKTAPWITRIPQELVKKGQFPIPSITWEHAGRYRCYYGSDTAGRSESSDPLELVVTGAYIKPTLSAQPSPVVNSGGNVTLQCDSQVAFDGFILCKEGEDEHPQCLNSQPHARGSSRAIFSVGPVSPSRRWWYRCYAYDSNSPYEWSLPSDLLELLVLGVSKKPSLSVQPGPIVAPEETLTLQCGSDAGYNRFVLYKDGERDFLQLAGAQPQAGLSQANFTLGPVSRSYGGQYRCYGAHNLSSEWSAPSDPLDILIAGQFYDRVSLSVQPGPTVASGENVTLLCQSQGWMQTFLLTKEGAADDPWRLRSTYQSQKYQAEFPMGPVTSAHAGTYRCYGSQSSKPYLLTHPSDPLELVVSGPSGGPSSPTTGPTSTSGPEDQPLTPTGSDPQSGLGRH
UniProt Q8NHL6, 24-458: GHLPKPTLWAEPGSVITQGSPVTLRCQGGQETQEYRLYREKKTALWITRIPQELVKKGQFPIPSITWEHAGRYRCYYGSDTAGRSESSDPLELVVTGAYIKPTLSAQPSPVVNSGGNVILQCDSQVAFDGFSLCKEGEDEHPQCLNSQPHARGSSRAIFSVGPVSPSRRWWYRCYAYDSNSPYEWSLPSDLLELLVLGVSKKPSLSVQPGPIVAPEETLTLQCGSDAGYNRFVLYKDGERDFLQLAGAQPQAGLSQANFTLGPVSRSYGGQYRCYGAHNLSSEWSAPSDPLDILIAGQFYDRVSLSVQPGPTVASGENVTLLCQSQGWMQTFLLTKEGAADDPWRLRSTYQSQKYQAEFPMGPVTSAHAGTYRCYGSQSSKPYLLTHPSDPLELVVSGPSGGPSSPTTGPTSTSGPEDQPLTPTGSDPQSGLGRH
UniProt Q8NHL6, 24-650: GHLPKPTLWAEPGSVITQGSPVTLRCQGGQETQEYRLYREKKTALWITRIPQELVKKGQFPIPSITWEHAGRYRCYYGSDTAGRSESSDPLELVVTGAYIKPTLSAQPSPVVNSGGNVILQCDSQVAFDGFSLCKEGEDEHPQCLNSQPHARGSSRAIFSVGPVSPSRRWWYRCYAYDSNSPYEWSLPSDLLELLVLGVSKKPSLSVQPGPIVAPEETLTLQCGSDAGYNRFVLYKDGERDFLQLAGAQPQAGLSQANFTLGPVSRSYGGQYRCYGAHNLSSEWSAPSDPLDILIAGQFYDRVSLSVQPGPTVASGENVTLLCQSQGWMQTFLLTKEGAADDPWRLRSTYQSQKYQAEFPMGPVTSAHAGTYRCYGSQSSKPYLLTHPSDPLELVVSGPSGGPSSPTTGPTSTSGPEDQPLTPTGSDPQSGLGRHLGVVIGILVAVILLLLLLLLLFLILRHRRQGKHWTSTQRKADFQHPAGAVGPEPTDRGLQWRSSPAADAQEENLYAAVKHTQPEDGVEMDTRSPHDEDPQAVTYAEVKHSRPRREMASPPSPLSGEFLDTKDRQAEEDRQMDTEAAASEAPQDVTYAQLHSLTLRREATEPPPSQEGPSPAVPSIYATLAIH
UniProt Q8NHL6, 24-482 limits assumed: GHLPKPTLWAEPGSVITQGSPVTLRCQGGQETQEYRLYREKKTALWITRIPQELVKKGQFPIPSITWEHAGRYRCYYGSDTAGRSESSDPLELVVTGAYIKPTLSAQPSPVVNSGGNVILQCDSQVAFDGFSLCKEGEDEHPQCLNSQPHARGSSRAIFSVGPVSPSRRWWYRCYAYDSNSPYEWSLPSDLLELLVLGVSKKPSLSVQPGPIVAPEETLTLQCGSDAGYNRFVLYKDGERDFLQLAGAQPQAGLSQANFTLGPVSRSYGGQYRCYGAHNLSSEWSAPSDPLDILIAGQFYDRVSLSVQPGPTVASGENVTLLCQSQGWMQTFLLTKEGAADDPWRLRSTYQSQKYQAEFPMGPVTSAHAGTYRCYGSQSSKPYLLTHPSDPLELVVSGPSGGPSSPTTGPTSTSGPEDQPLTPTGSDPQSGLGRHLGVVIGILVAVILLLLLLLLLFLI
ECD-His tagged African green monkey (AGM) ILT2 orthologue protein, one chain, as listed by the source: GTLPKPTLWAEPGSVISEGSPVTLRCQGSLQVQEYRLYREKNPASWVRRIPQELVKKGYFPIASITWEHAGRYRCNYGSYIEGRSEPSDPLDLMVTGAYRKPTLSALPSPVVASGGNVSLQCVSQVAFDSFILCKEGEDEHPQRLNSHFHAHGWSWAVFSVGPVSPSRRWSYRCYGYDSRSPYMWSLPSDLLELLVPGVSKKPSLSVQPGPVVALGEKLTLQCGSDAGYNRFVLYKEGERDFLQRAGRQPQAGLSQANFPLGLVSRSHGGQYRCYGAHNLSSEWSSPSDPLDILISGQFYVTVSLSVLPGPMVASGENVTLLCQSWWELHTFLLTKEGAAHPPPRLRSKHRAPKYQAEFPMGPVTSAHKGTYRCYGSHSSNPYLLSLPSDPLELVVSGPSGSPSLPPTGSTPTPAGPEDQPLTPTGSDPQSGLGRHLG

What was measured:
[1] = target: T1, recombinant human LILRA1/LIR-6 (Sino Biological 17220-H08H-100) (human, UniProt O75019); test: SPR
T1 construct: Bought
Procedure: (§1) Briefly, SPR experiments were performed using a Biacore T200 instrument, and the association rate (Kₐ), dissociation rate (Kd), and dissociation constant (KD) were calculated from each experiment using a 1:1 binding model with Biacore™ T200 Evaluation Software. Capture of antibodies from the Human Fab Capture kit (28958325, GE Healthcare) to the Series S CM5 sensor chip (29149603, GE Healthcare) was performed using the immobilization wizard for amine coupling from the Biacore™ control panel and following the manufacturer's recommendations included with the kit.

[2] = target: T2, recombinant human LILRA2/ILT1 (R&D Systems 9040-T4-050) (human, UniProt Q8N149); test: SPR
T2 construct: Bought
Procedure: as §1

[3] = target: T3, recombinant human LILRA4/ILT7 (Sino Biological 16058-H08H-50) (human, UniProt P59901, in part); test: SPR
T3 construct: Bought
Procedure: as §1

[4] = target: T4, recombinant human LILRA5/ILT11 (Sino Biological 16059-H08H-100) (human, UniProt A6NI73, in part); test: SPR
T4 construct: Bought
Procedure: as §1

[5] = target: T5, recombinant human LILRA6/ILT8 (Sino Biological 29813-H08H-50) (human, UniProt Q6PI73); test: SPR
T5 construct: Bought
Procedure: as §1

[6] = target: T6, recombinant human LILRB2/ILT4 (R&D Systems 8429-T4-050) (human, UniProt Q8N423, in part); test: SPR
T6 construct: Bought
Procedure: as §1

[7] = target: T7, recombinant human LILRB3/ILT5 (R&D Systems 9159-T5-050) (human, UniProt O75022, in part); test: SPR
T7 construct: Bought
Procedure: as §1

[8] = target: T8, recombinant human LILRB4/ILT3 (Sino Biological 16742-H08H) (human, UniProt Q8NHJ6, in part); test: SPR
T8 construct: Bought
Procedure: as §1

[9] = target: T9, recombinant human LILRB5/LIR-8 (Sino Biological 17221-H08H-100) (human, UniProt O75023, in part); test: SPR
T9 construct: Bought
Procedure: as §1

[10] = target: T10, ECD-His tagged cynomolgus monkey ILT2 orthologue protein, variant 1 (cynomolgus monkey); test: SPR
T10 construct: also called Cyno ILT2 variant 1; not shown: His tag

[11] = target: T11, ECD-His tagged cynomolgus monkey ILT2 orthologue protein, variant 2 (cynomolgus monkey); test: SPR
T11 construct: also called Cyno ILT2 variant 2; not shown: His tag

[12] = target: T12, ECD-His tagged rhesus monkey ILT2 orthologue protein, variant 1 (rhesus monkey); test: SPR
T12 construct: also called Rhesus ILT2 variant 1; not shown: His tag

[13] = target: T13, ECD-His tagged rhesus monkey ILT2 orthologue protein, variant 2 (rhesus monkey); test: SPR
T13 construct: also called Rhesus ILT2 variant 2; not shown: His tag

[14] = target: T14, ECD-His tagged African green monkey (AGM) ILT2 orthologue protein (African green monkey); test: SPR
T14 construct: also called African Green Monkey ILT2 ECD; not shown: His tag

[15] = target: T15, ECD-His tagged mouse PirB protein (R&D Systems, 2754PB050) (mouse, UniProt P97484 25-642); test: SPR
T15 construct: extracellular domain; Bought; not shown: His tag
T15 sequence (looked up): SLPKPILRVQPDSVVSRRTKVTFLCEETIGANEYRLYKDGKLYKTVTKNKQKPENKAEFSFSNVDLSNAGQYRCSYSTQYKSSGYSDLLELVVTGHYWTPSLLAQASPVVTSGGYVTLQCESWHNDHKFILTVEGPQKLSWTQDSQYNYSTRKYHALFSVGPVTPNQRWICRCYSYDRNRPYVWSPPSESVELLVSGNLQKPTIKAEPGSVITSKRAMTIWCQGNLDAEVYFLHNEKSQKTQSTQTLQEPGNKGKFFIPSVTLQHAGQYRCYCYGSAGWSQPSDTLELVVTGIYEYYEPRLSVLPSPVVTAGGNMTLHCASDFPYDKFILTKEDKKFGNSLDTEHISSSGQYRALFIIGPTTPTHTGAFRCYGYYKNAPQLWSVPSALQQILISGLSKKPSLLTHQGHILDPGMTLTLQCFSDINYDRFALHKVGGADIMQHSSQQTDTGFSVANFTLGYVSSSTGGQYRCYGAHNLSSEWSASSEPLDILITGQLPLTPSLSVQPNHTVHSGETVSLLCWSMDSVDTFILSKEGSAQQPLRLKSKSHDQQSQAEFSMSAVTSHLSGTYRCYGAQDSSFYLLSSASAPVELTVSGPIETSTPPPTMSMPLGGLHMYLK

[16] = target: T16, ECD-His tagged human ILT2 haplotype PE02 (human, UniProt Q8NHL6, in part); test: SPR, ILT2 ECD-His
T16 construct: also called Human ILT2 PE02 ECD; not shown: His tag
Procedure: as §1

[17] = target: T17, ECD-His tagged human ILT2 haplotype PE03 (human, UniProt Q8NHL6, in part); test: SPR, ILT2 ECD-His
T17 construct: also called Human ILT2 PE03 ECD (Sino biological, 16014-H08H); not shown: His tag
Procedure: as §1

[18] = target: T18, ECD-His tagged human ILT2 haplotype PE01 (human, UniProt Q8NHL6, in part); test: SPR, LILR family panel
T18 construct: also called Human ILT2 PE01 ECD; LILRB1/ILT2 PE01; not shown: His tag
Procedure: as §1

[19] = target: full-length ILT2 expressed on Jurkat cells (human, UniProt Q8NHL6); test: cell-based or functional assay
[20] = target: T19, ECD-His tagged cynomolgus monkey ILT2 orthologue protein, variant 3 (cynomolgus monkey); test: SPR, ECD-His tagged receptor
T19 construct: also called Cyno ILT2 variant 3; not shown: His tag
Procedure: as §1

[21] = target: T20, human ILT2 extracellular and transmembrane domains expressed on CHO cells (human, UniProt Q8NHL6, in part); test: flow cytometry, CHO cells with high human ILT2
T20 construct: domain: extracellular and transmembrane domains; which one is told under assay; also called CHO cells expressing human ILT2 (relatively low or relatively high level); CHO-ILT2 cells
Procedure: For the antibody binding assay, the cells were seeded in a 96-well U-bottom tissue culture plate at a density of 3×10⁵ cells per well in 25 μL of PBS supplemented with 0.5% BSA, 1 mM EDTA and 0.05% sodium azide (FACS Buffer). The cells were incubated for 30 minutes at 4° C. with […] of a series dilution of anti-ILT2 antibodies or isotype control at concentrations from 10 μg/mL to 2.4 ng/mL in FACS Buffer.
After a 30-minute incubation in the dark at 4° C., the cells were washed twice with cold FACS Buffer, and the cells were analyzed by flow cytometry (BD LSR Fortessa Flow Cytometer). CHO-ILT2 cells were identified and MFI was calculated as above.

[22] = target: T18, ECD-His tagged human ILT2 haplotype PE01; test: SPR, ILT2 PE01 ECD-His, average of two measurements
Procedure: as §1
Variants of irrelevant antibody VRC01 (with IgG1, IgG1 N297A, IgG4 S228P, IgG2, or IgG2 C127S constant regions) were used as negative isotype controls. The binding kinetics are shown in Table 5 as an average from two independent measurements.

B1: BA221 (antibody, human IgG4 S228P, kappa)
heavy: QVQLVQSGAEVKKPGASVKVSCKASGYTFNRYYMHWVRQAPGQGLEWMGWINPYTGGTNYAQKFQGRVTMTRDTSISTAYMELSRLRSDDTAVYYCASKQPSSDYWGQGTLVTVSSASTKGPSVFPLAPCSRSTSESTAALGCLVKDYFPEPVTVSWNSGALTSGVHTFPAVLQSSGLYSLSSVVTVPSSSLGTKTYTCNVDHKPSNTKVDKRVESKYGPPCPPCPAPEFLGGPSVFLFPPKPKDTLMISRTPEVTCVVVDVSQEDPEVQFNWYVDGVEVHNAKTKPREEQFNSTYRVVSVLTVLHQDWLNGKEYKCKVSNKGLPSSIEKTISKAKGQPREPQVYTLPPSQEEMTKNQVSLTCLVKGFYPSDIAVEWESNGQPENNYKTTPPVLDSDGSFFLYSRLTVDKSRWQEGNVFSCSVMHEALHNHYTQKSLSLSLGK
light: DIVMTQSPLSLPVTPGEPASISCRSSQSLLHSNTYNYLDWYLQKPGQSPQLLIYLGSNRASGVPDRFSGSGSGTDFTLKISRVEAEDVGVYYCLQASQAPWTFGQGTKVEIKRTVAAPSVFIFPPSDEQLKSGTASVVCLLNNFYPREAKVQWKVDNALQSGNSQESVTEQDSKDSTYSLSSTLTLSKADYEKHKVYACEVTHQGLSSPVTKSFNRGEC
binding result [1]: no binding
binding result [2]: no binding
binding result [3]: no binding
binding result [4]: no binding
binding result [5]: no binding
binding result [6]: no binding
binding result [7]: no binding
binding result [8]: no binding
binding result [9]: no binding
binding result [10]: no binding
binding result [11]: no binding
binding result [12]: no binding
binding result [13]: no binding
binding result [14]: no binding
binding result [15]: no binding
Kd [16]: 0.48 nM
koff [16]: 0.00023 s⁻¹
kon [16]: 480000 M⁻¹ s⁻¹
Kd [17]: 0.66 nM
koff [17]: 0.00029 s⁻¹
kon [17]: 440000 M⁻¹ s⁻¹
Kd [18]: 0.45 nM
koff [18]: 0.00021 s⁻¹
kon [18]: 460000 M⁻¹ s⁻¹
FcγRIIIa-NFAT luciferase signaling, Average AUC normalized to HP-F1 [19]: 143
FcγRIIIa-NFAT luciferase signaling, EC50 [19]: 32.8 µg/mL
Kd [20]: 2800 nM
AUC [21]: 361000
EC50 [21]: 0.141 µg/mL
Kd [22]: 0.2 nM
koff [22]: 7.3e-05 s⁻¹
kon [22]: 370000 M⁻¹ s⁻¹
